The test has as its system male SA rats. The experiment in a line: Anticonvulsant activity, maximal electroshock (MES) model. The settings on record: Rattus norvegicus, ip, 1 h. The format is in vivo. As for the experimental part: The anticonvulsant activity of the tested compounds was evaluated in male SA rats (100-150 g, Simonsen) using the maximal electroshock (MES) model described in Swinyard et al., Antiepileptic Drugs, 3d Ed. at 85-102 (Levy, et al., eds.), N.Y.: Raven Press (1989). The rats were maintained on a 12/12 light/dark cycle in temperature controlled facilities with free access to food and water. For p.o. administration, the animals are fasted overnight, prior to the experiment. One hour prior to seizure testing, the animals were injected interperitoneally (ip) or orally (per os, […]) with one of various doses of test compound dissolved in DMSO or PEG 400.
This endpoint was expressed as the percentage of animals in which the response was inhibited.

Structures are written as SMILES.

As to `C[C@H]1O[C@@H](n2cc(-c3ccccc3)c3c(Nc4ccc(CN(C)C)cc4)ncnc32)[C@H](O)[C@@H]1O` [Compound 1, 4-N(N,N-Dimethylaminomethylphenyl)amino-5-phenyl-7-(5-deoxy-β-D-ribofuranosyl)pyrrolo[2,,3-d]pyrimidine], the ED50 was found to be 5 mg/kg.

Usually ED50 stands for the midpoint of the dose-response relation. A low value points to an effect at a small dose.

Source of the values: US5726302A, “Water soluble adenosine kinase inhibitors” (Gensia Inc., priority 1995, dated 1998).
